The list is not random: actives were taken first. Their share in the collection is about 3.7%.
Nrf2 activator – activators of Nrf2 (ARE) signaling | 410,000 compounds, 0.31% hits | Potency, µM (series often up to 46.1 µM), inactives show top-dose activation, actives largely listed as activators | AID 624171 | AREc32 ARE-luciferase reporter (MCF7-derived line), luminescence, 24 h; note: potency is the fitted concentration of half-maximal effect; % of control where 0% means no effect; nearly all actives have a fitted effect of over 65% in size
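Quantitative high-throughput format: AREc32 reporter cells, 1000 per well, received compound by pin transfer and were incubated 24 hr at 37 deg C, 5% CO2, before Steady-Glo luminescence detection.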
ClpP mod – qHTS Assay for Activators of ClpP; ATP-dependent Clp protease proteolytic subunit (Bacillus subtilis (strain 168)), P80244; purified B. subtilis ClpP, FRET peptide cleavage, 20 min; Potency, µM (doses to about 57.5 µM), for the others: top-dose activity change, negative = active; 340,000 compounds, 1.9% hits; active = well fitted falling curve with a large enough effect; inconclusive = small, poorly fitted or top-dose-only effect; inactive = no such curve, though single readings can be large or run the other way; note: potency is the fitted concentration of half-maximal effect; the source files actives as falling curves though it sought activators and does not explain the sign; nearly all actives have a fitted effect of over 65% in size
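ClpP 10 microg/mL final, pH 8 Tris/KCl buffer with BSA, glycerol, Tween-20; compound pinned in; FRET-FV substrate; RT 20 min; Ex320/Em430; ΔFRET vs ADEP 5.8 microM, DMSO, no enzyme.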
A549 tox – A549 cytotoxicity, counter-screen for Nrf2 inhibitors | A549 ARE-Fluc cells, CellTiter-Fluor viability, 18-24 h | Potency, µM (doses to about 46 µM), inactives show at the highest dose activity change, negative = cytotoxicity, most hits filed as inhibitors | 390,000 compounds, 0.16% hits | AID 504648; note: potency is the fitted concentration of half-maximal effect; % is set by controls: 0 for no effect and ±100 for the full control effect
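Cytotoxicity counterscreen: CellTiter-Fluor fluorescence was measured in A549 ARE_Fluc cells after 18-24 h of compound exposure in a concentration series. The subsequent BugLite luminescent read reports ARE-luciferase activity.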
p53 reactivation – re-activators of mutant p53; Potency, µM (doses to about 92.2 µM), for inactives: at the highest dose activity change, positive = activation, most hits filed as activators; 320,000 compounds, 0.063% hits; H1299 p53-A138V BP100-luciferase reporter, luminescence, 24 h; note: potency is the fitted concentration of half-maximal effect; % of control where 0% means no effect; nearly all actives have a fitted effect of over 45% in size
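p53-null H1299 cells stably carrying temperature-sensitive p53-A138V and a BP100-luciferase reporter were pinned with compounds (4-point, 1:5 series) and held 24 hrs at 37 deg C. Luminescence was read 10 min after detection reagent.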
miR-21 reporter – raises the signal of a miR-21 reporter | AID 2288 | 340,000 tested, under 10 active | Potency, µM (series often up to 38.3 µM), without a hit: at the highest dose reporter change, positive = more light | HeLa miR-21 FLuc reporter, luciferase, 48 h; active = well fitted rising curve with a large enough effect; inconclusive = small, poorly fitted or top-dose-only effect; inactive = no such curve, though single readings can be large or run the other way;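 further: % of control where 0% means no effect; miR-21 action dims this reporter so a rising signal means less miR-21 action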
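HeLa miR-21-FLuc reporter line, endogenous miR-21; 2000 cells/well in DMEM/10% FBS; compound titration up to ~40uM final, 48 h, 37 degree Celsius; luciferase detection reagent, 15 min lysis, CCD luminescence.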
Nrf2 block – Nrf2 pathway inhibition | A549 ARE-Fluc reporter, luciferase luminescence, 18-24 h | Potency, µM (titrated, usually from 46 µM), for inactives: at the highest dose activity change, negative = inhibition, most hits filed as inhibitors | 360,000 compounds, 2.1% hits; note: potency is the fitted concentration of half-maximal effect; % is set by controls: 0 for no effect and ±100 for the full control effect; nearly all actives have a fitted effect of over 60% in size
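A549 ARE_Fluc cells (5000/well, 5% FBS OPTI-MEM) pre-incubated 2 h, then treated with compounds 18-24 h at 37C/5% CO2 in concentration-response. CellTiter-Fluor viability read first; BugLite luciferase luminescence after 15 min at room temperature gives Nrf2 activity.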
Active calls of the source: *; u = inconclusive; x = no result; [ ] = another dose, or the depositor's remark. Unless noted, calls come from the whole dose curve; as a rule, active = well fitted curve in the direction sought with a large enough effect; inconclusive = small, poorly fitted or top-dose-only effect, or another doubt; inactive = no such curve, though single readings can be large; an effect the other way counts as inactive or inconclusive.

[1] COc1cccc(-c2cc3nc(-c4ccccc4)cc(N4CCC5(CC4)OCCO5)n3n2)c1
[2] CN(C)C=NC(=O)c1ccc(N2CCN(c3ncc(C(F)(F)F)cc3Cl)CC2)cc1
[3] CN(C)/C=C/C(=O)c1ccc(N2CCN(c3ncc(C(F)(F)F)cc3Cl)CC2)cc1
[4] Cc1ccc(NCC(O)Cn2cnc3c2c(=O)n(C)c(=O)n3C)cc1 (stereo not given)
[5] Cn1c(=O)c2c(ncn2CC(O)CNc2ccc(Cl)cc2)n(C)c1=O (stereo not given)
[6] CC(C)(C)OC(=O)Cc1nnc(-c2nc3ccccc3[nH]2)s1
[7] O=c1cc(CN2CCOCC2)c2cc(Cl)c(O)cc2o1
[8] CCc1cc2c(CN3CCN(CC)CC3)cc(=O)oc2cc1O

assay / compound	1	2	3	4	5	6	7	8
ClpP mod	16µM*	25µM*	-15%	28µM*	0%	x	4%	28µM*
Nrf2 activator	0%	0%	0%	2%	0%	x	0%	0%
p53 reactivation	1%	x	0%	-3%	x	x	-4%	-5%
Nrf2 block	u	u	u	-26%	-28%	u	15%	8%
miR-21 reporter	14%	-6%	-4%	-5%	-1%	x	-4%	-13%
A549 tox	-15%	-28%	-20%	4%	12%	-3%	0%	u

[9] O=C(CNC(=O)c1ccccc1)N[C@H](C(=O)Nc1cc(C(F)(F)F)ccc1Cl)c1ccccc1
[10] CCCn1c(CN2CCN(c3cccc(Cl)c3)CC2)nc2c1c(=O)n(C)c(=O)n2C
[11] Nc1ccc(C(=O)NN2C(=O)[C@H](Cl)C2c2ccc(Cl)cc2)cc1 (stereo not given in full)
[12] CC(=O)c1cccc(NC(=O)CN2C(=O)CCc3cc(S(=O)(=O)N4CCCCC4)ccc32)c1
[13] O=C1OC(Nc2ccc3c(c2)OCO3)c2ccccc21 (stereo not given)
[14] COc1ccccc1NC(=O)Nc1nc(CC(=O)N2CCN(c3ccccc3)CC2)cs1
[15] CS(=O)(=O)c1ccc(C2=C(c3ccccc3)C(=O)OC2)cc1
[16] O=C1OCC(c2ccccc2)=C1c1ccccc1

assay / compound	9	10	11	12	13	14	15	16
ClpP mod	x	-5%	1%	-3%	-3%	x	1%	35µM*
Nrf2 activator	x	0%	-2%	-1%	11µM*	2%	1%	0%
p53 reactivation	x	4%	x	x	u	1%	x	-2%
Nrf2 block	-12%	18µM*	9%	x	u	7.3µM*	-3%	-10%
miR-21 reporter	x	10%	x	5%	u	x	x	0%
A549 tox	-3%	-26%	-12%	0%	-17%	-15%	2%	8%

Part of the list above in another layout:
No.	molecule	ClpP mod	Nrf2 activator	p53 reactivation	Nrf2 block	miR-21 reporter	A549 tox
10	CCCn1c(CN2CCN(c3cccc(Cl)c3)CC2)nc2c1c(=O)n(C)c(=O)n2C	-5%	0%	4%	18µM*	10%	-26%
11	Nc1ccc(C(=O)NN2C(=O)[C@H](Cl)C2c2ccc(Cl)cc2)cc1 (stereo not given in full)	1%	-2%	x	9%	x	-12%

Additional results follow:
[17] N#Cc1c(N)nc(N)nc1Nc1ccc(Br)cc1
[18] CC(OC(=O)C1=COCCO1)C(=O)NC1CCCC(C)C1C (stereo not given)
[19] Cc1ccc(S(=O)c2ccc([N+](=O)[O-])c3nonc23)cc1 (stereo not given)
[20] COc1ccc2c(c1)c(C(C)=O)c(C)n2CCc1ccccc1
[21] N#Cc1c(-c2ccc(Cl)cc2)no[n+]1[O-]
[22] C=CCn1c(SCc2ccc(C(=O)Nc3nccs3)cc2)nnc1-c1ccc(C)c(Cl)c1
[23] O=C(CSc1nnc2n1CCCN2)c1ccc(Cl)cc1
[24] O=C(CSc1nnc2n1CCCN2)c1ccc([N+](=O)[O-])cc1

assay / compound	17	18	19	20	21	22	23	24
ClpP mod	x	1%	-2%	-5%	x	-27%	14µM*	x
Nrf2 activator	13µM*	0%	18µM*	-1%	x	1%	0%	0%
p53 reactivation	u	x	x	-5%	x	-6%	23%	3%
Nrf2 block	u	x	x	13µM*	-8%	21µM*	8%	-2%
miR-21 reporter	-46%	x	x	9%	x	u	-16%	-4%
A549 tox	-6%	x	x	-18%	-4%	-18%	-9%	1%

[25] Cc1cc2c(s1)c1cnn(Cc3cc(F)cc(F)c3F)c(=O)c1n2C
[26] O=S(=O)(NCc1cccc(Br)c1)c1ccc(-c2cc(C(F)(F)F)on2)s1
[27] CC(=O)NC(Cc1cccc(F)c1)C(=O)NC1CCN(c2ncccc2[N+](=O)[O-])CC1 (stereo not given)
[28] CC(=O)NC(Cc1cccc(C)c1)C(=O)NC1CCN(c2ncccc2[N+](=O)[O-])CC1 (stereo not given)
[29] Cc1cccc(-n2cc(-c3ccccc3)c3c(N4CCC(C)CC4)ncnc32)c1
[30] COc1ccccc1CNc1ncnc2c1c(-c1ccccc1)cn2-c1cccc(C)c1
[31] COc1cccc(N2CCN(c3ncnc4c3c(-c3ccccc3)cn4-c3ccc(F)cc3)CC2)c1
[32] COc1ccccc1N1CCN(c2ncnc3c2c(-c2ccccc2)cn3-c2cccc(C)c2)CC1

assay / compound	25	26	27	28	29	30	31	32
ClpP mod	x	1%	-1%	16µM*	28µM*	28µM*	-2%	11µM*
Nrf2 activator	x	1%	-1%	0%	1%	4%	-1%	2%
p53 reactivation	x	x	-1%	-8%	x	x	x	x
Nrf2 block	0%	u	-14%	7%	x	x	x	x
miR-21 reporter	x	5%	-7%	0%	-5%	1%	-3%	-5%
A549 tox	-3%	0%	1%	-6%	14%	14%	8%	9%

Ordered by molecular weight (ascending): part of the list above.
[25] Cc1cc2c(s1)c1cnn(Cc3cc(F)cc(F)c3F)c(=O)c1n2C
[29] Cc1cccc(-n2cc(-c3ccccc3)c3c(N4CCC(C)CC4)ncnc32)c1
[27] CC(=O)NC(Cc1cccc(F)c1)C(=O)NC1CCN(c2ncccc2[N+](=O)[O-])CC1 (stereo not given)

assay / compound	25	29	27
ClpP mod	x	28µM*	-1%
Nrf2 activator	x	1%	-1%
p53 reactivation	x	x	-1%
Nrf2 block	0%	x	-14%
miR-21 reporter	x	-5%	-7%
A549 tox	-3%	14%	1%

Other structures follow.
[33] COc1ccc(NC(=O)Cn2c(=O)n(-c3ccc(C)cc3)c(=O)c3c2cnn3C)cc1
[34] COc1ccc(CNc2n[nH]c(-c3ccco3)n2)cc1OC
[35] O=C1CC(c2cccc([N+](=O)[O-])c2)c2cc3c(cc2N1)CCC3 (stereo not given)
[36] CCc1ccccc1N(C)C(=O)c1cc2c(s1)-c1c(C)cccc1OC2
[37] COc1ccc(N(C)C(=O)c2cc3c(s2)-c2c(C)cccc2OC3)c(OC)c1
[38] Clc1ccccc1NN=Cc1ccccn1
[39] COc1cc2ncc(S(=O)(=O)c3ccccc3)c(N3CCCC(C)C3)c2cc1OC (stereo not given)
[40] CCN1CCN(c2c(S(=O)(=O)c3ccc(OC)cc3)cnc3cc(OC)c(OC)cc23)CC1

assay / compound	33	34	35	36	37	38	39	40
ClpP mod	0%	-1%	1%	3%	-16%	-4%	-4%	-1%
Nrf2 activator	0%	-1%	0%	6%	4%	7.1µM*	-5%	0%
p53 reactivation	x	x	6%	x	2%	x	-3%	x
Nrf2 block	21%[9.27 µM]	17%	15µM*	-11%	21µM*	x	23µM*	5%
miR-21 reporter	11%	4%	26%	-19%	-4%	x	15%	20%
A549 tox	1%	1%	u	7%	15%	x	u	-11%

[41] Cc1cccc(C=Nc2ccc3c4c(cccc24)CC3)c1O
[42] Cc1cc(C)n(C(C)CC(=O)NCc2ccc(N(C)C)cc2)n1 (stereo not given)
[43] CCN(CC)C(=O)Oc1ccc(Br)cc1C(=O)Nc1ccc(F)cc1F
[44] CN(C)S(=O)(=O)Oc1ccccc1C(=O)Nc1ccc(F)cc1F

assay / compound	41	42	43	44
ClpP mod	16µM*	-7%	32µM*	x
Nrf2 activator	3%	-1%	1%	0%
p53 reactivation	14%	x	1%	-2%
Nrf2 block	2%	4%	-7%	0%
miR-21 reporter	-2%	30%	-6%	-2%
A549 tox	1%	1%	4%	-7%

Source: PubChem
